Test results taken from patent US7452388B2, “Compositions comprising dimeric or oligomeric ferrocenes” (Innospec Limited, priority 2000, dated 2008).

Experiments:
[1] = PLUTOsol APF, 2.5% by weight iron
[2] = Viscosity of 2.5 wt % iron solutions in toluene (Bohlin CVO rheometer); format: physicochemical; conditions: toluene solution at 2.5 wt % Fe
Method: Viscosities of 2.5 wt % iron solutions were determined using a Bohlin Instruments CVO rheometer using a 4° 40 mm cone and plate at shear rates of either 2 Pa or 0.5 Pa.

[3] = additive in diesel fuel, 20 ppm iron
[4] = PLUTOsol APF, 2.5% by weight iron; remark: listed apart in the source
[5] = additive 20 ppm iron
[6] = Solubility testing in toluene at −30° C.; conditions: at least one week

**Q.** Which results are given for 2,2-bisferrocenylpropane [Compound 1]?
**A.** Vapour Pressure ([1]; 20° C.): 1 mbar; Vapour Pressure ([1]; 40° C.): 2 mbar; Vapour Pressure ([1]; 50° C.): 3 mbar; Vapour Pressure ([1]; 60° C.): 5 mbar; Vapour Pressure ([1]; 70° C.): 8 mbar; Vapour Pressure ([1]; 80° C.): 13 mbar; Vapour Pressure ([1]; 90° C.): 20 mbar; Viscosity at −30° C. (mPas) [2]: 5.4 mPas; effect on the stability of the fuel (conclusion) [3]: does not adversely affect the stability of the fuel; Viscosity ([4]; 0° C.): 4.8 mPas; Viscosity ([4]; 20° C.): 2.7 mPas; Viscosity ([4]; 25° C.): 2.5 mPas; Viscosity ([4]; 40° C.): 2.2 mPas; Viscosity ([4]; 50° C.): 2.2 mPas; Viscosity ([4]; 60° C.): 2.0 mPas; Viscosity ([4]; 90° C.): 2.0 mPas; Viscosity ([4]; −10° C.): 6.8 mPas; Viscosity ([4]; −15° C.): 8.6 mPas; Viscosity ([4]; −20° C.): 10.5 mPas; Viscosity ([4]; −30° C.): 14.8 mPas; Viscosity ([4]; −40° C.): 21 mPas and 21.0 mPas; fuel stability (conclusion) [5]: as good as that provided by the parent compound (ferrocene)

**Q.** What does the source list for “1,1-diferrocenyl-3-methyl butane [Compound 6]”?
**A.** Solubility at −30° C., 2.5 wt % Fe (appearance) [6]: Clear; Solubility at −30° C., 5.0 wt % Fe (appearance) [6]: Powder

Where “and” joins values, the source holds several entries; their conditions need not be identical. Equal entries are not always repeated. Where two headings read alike, the source gives them in different places.
